Most compounds without a hit are left out; they make up all but 1.5% or so of the library.
UUG fidelity – modulators of start codon recognition fidelity in yeast; AID 602363; activity score, % at 18.7 µM; S. cerevisiae UUG-firefly luciferase reporter, luminescence/redox ratio; actives 0.13% (n = 350,000);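 active = replicate mean at a twofold rise or more, about +100% in these data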;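 note: firefly luciferase made from a UUG start codon reports start codon fidelity; reporter light over untreated wells divided by growth signal over untreated wells; some hits fall short of that in this replicate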
RAD54 inh – inhibitors of human RAD54 branch migration. Q92698. RAD54 Holliday junction branch migration, FAM/BHQ fluorescence. inhibition, % at 10.4 µM. 360,000 tested, 0.14% active;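 active = mean normalized replicate activity at least 40 and at least half of replicates scoring 40 or more; inconclusive = only one of the two criteria met; inactive = mean below 40 and under half of replicates reaching 40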;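 also: 0% = median of neutral control wells and 100% = median of positive control wells; inhibitors cause a drop in the FAM fluorescence signal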
INS-1E GSIS act – GLuc luminescence reporter in INS-1E cells, primary screen for activators of glucose-dependent secretion of insulin | INS-1E GLuc reporter insulin secretion, 2-3 h | activation, % at 16.6 µM | 370,000 tested, 0.61% active | AID 743287;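 active = lowest replicate activation of at least 40%, so every replicate reaches that level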;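 also: 0% = median of neutral control wells and 100% = median of IBMX positive control wells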
RAD52 inh – inhibitors of human RAD52 DNA annealing; recombinant RAD52 DNA annealing, FRET fluorescence; 360,000 tested, 0.46% active; inhibition, % at 18.7 µM;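 active = every replicate showing at least 50% inhibition; inconclusive = mean inhibition at least 50% but not in every replicate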
Casp6 inh – caspase-6 (human) enzyme inhibition. purified caspase-6, Z-VEID-R110 cleavage fluorescence. inhibition, % at 12.5 µM. 350,000 tested, 0.53% active;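 active = mean inhibition across replicates at least about 35%, with every replicate also reaching that limit, limit read from the data; inconclusive = only one of the two criteria met; inactive = neither criterion met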;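 also: 0% = median of neutral control wells and 100% = no fluorescence left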
PglD DTNB – PglD (C. jejuni) enzyme inhibition; purified PglD enzyme, DTNB colorimetric CoA detection; inhibition, % at 12.5 µM; 360,000 tested, 0.098% active; in the data active = inhibition above about 16%, passing the limit was not always enough; inconclusive = no clear call, values can overlap the other calls
RAD52 DNA ctr – binds DNA, flagging false RAD52 inhibitor hits; shares compounds with RAD52 inh; Salmon sperm DNA/acridine orange FP displacement, DNA binding; AC50, µM; 1,000 tested, 8% active;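 active = fitted half-maximal concentration for signal loss at or below twice the highest dose tested, in every separate run, actives reach about 64 µM in these data; inconclusive = runs disagree, or flat partial signal loss, or poor fit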
* = called active by the depositor; i = inactive; ? = inconclusive; · = no result.

Start of the data: the first 5 entries (preview)
SMILES	UUG fidelity	RAD54 inh	INS-1E GSIS act	RAD52 inh	Casp6 inh	PglD DTNB	RAD52 DNA ctr
Clc1ccc(-c2ncc3ccccn23)cc1	·	·	-2	-17	10	·	·
N#Cc1cc2cc3c(cc2nc1SCC(=O)N1CCOCC1)OCO3	-6	5	-3	-35	5	2	·
N#Cc1cc2cc3c(cc2nc1NCCNC(=S)NCCCN1CCOCC1)OCO3	·	·	7	72*	-5	·	i
COc1ccc2sc(N(CCN(C)C)C(=O)c3ccc4ccccc4c3)nc2c1	0	0	-3	56*	4	-2	i
CCN(CC)CCN(C(=O)c1ccc2ccccc2c1)c1nc2cc3c(cc2s1)OCO3	-8	-2	-37	61*	-3	1	i

Main list, from the first entry:
SMILES	UUG fidelity	RAD54 inh	INS-1E GSIS act	RAD52 inh	Casp6 inh	PglD DTNB	RAD52 DNA ctr
Clc1ccc(-c2ncc3ccccn23)cc1	·	·	-2	-17	10	·	·
N#Cc1cc2cc3c(cc2nc1SCC(=O)N1CCOCC1)OCO3	-6	5	-3	-35	5	2	·
N#Cc1cc2cc3c(cc2nc1NCCNC(=S)NCCCN1CCOCC1)OCO3	·	·	7	72*	-5	·	i
COc1ccc2sc(N(CCN(C)C)C(=O)c3ccc4ccccc4c3)nc2c1	0	0	-3	56*	4	-2	i
CCN(CC)CCN(C(=O)c1ccc2ccccc2c1)c1nc2cc3c(cc2s1)OCO3	-8	-2	-37	61*	-3	1	i
Cc1ccc2nc(N(CCCN(C)C)C(=O)c3ccc(S(=O)(=O)N4CCc5ccccc5C4)cc3)sc2c1	-7	-5	2	74*	11	2	i
CN(C)CCCN(C(=O)c1ccc(S(=O)(=O)N2CCc3ccccc3C2)cc1)c1nc2ccc(F)cc2s1	-6	5	-7	-1	2	-1	·
CN(C)CCCN(C(=O)c1ccc(C(=O)c2ccccc2)cc1)c1nc2cc3c(cc2s1)OCCO3	5	31	-18	73*	-47	7	i
COc1ccc(S(=O)(=O)Nc2ccc3c(c2)C(=O)N([C@@H](C)CO)C[C@H](C)[C@@H](CN(C)CC2CCCCC2)O3)cc1	7	15	2	4	1	9	·
CC(C)CCNC(=O)c1cccc(Cl)c1	-6	-14	·	·	·	-7	·
CN(C)CCCN(C(=O)c1ccc2c(c1)CCCC2)c1nc2cc3c(cc2s1)OCO3	8	39	-18	71*	2	-2	i
CN(C)CCCN(C(=O)c1ccc2c(c1)CCCC2)c1nc2ccc(F)cc2s1	17	13	-10	·	·	1	·
Cc1ccc2sc(N(CCCN(C)C)C(=O)c3ccc(S(=O)(=O)N(C)C4CCCCC4)cc3)nc2c1C	13	9	-1	61*	-10	4	i
CCN(CC)CCN(C(=O)c1ccc(S(=O)(=O)N(C)C2CCCCC2)cc1)c1nc2c(C)cccc2s1	15	-2	-36	-18	0	2	·
Cc1ccc(-c2[nH]c3cc(C(=O)NCCCn4ccnc4)ccc3c(=O)c2O)cc1	-9	9	-1	80*	4	-4	i
C#CCOCCOCCOCCNc1nc(N2CCN(C(=O)[C@H]([C@@H](C)CC)n3cc([C@@H](N)CO)nn3)CC2)nc(N2CCN(C(=O)[C@H](CCCCN)n3cc([C@@H](N)CC(C)C)nn3)CC2)n1	·	·	8	52*	-146	·	i
C#CCOCCOCCOCCNc1nc(N2CCN(C(=O)[C@H](CCCCN)n3cc([C@@H](N)[C@H](C)CC)nn3)CC2)nc(N2CCN(C(=O)[C@H](CCCCN)n3cc([C@@H](N)CC(N)=O)nn3)CC2)n1	-5	-20	23	54*	-260	-1	i
C#CCOCCOCCOCCNc1nc(N2CCN(C(=O)[C@H](CCCCN)n3cc(CN)nn3)CC2)nc(N2CCN(C(=O)[C@H](CCCN=C(N)N)n3cc(C(N)[C@H](C)CC)nn3)CC2)n1 (some centres not stated)	62	-17	10	77*	-219	-2	?
C#CCOCCOCCOCCNc1nc(N2CCN(C(=O)[C@H](CC(N)=O)n3cc(C(N)[C@@H](C)CC)nn3)CC2)nc(N2CCN(C(=O)[C@H](CCCCN)n3cc([C@@H](N)CC(N)=O)nn3)CC2)n1 (some centres not stated)	8	-25	9	24	-122	-1	·
C#CCOCCOCCOCCNc1nc(N2CCN(C(=O)[C@H](CCCCN)n3cc(CN)nn3)CC2)nc(N2CCN(C(=O)[C@H](CCC(=O)O)n3cc([C@@H](N)[C@H](C)CC)nn3)CC2)n1	14	-8	11	-6	-121	-2	·
C#CCOCCOCCOCCNc1nc(N2CCN(C(=O)[C@H](CCCN=C(N)N)n3cc(C(N)[C@H](C)CC)nn3)CC2)nc(N2CCN(C(=O)[C@H](CCCN=C(N)N)n3cc(C(N)[C@@H](C)CC)nn3)CC2)n1 (some centres not stated)	48	-1	·	·	·	2	·
C#CCOCCOCCOCCNc1nc(N2CCN(C(=O)[C@H](CCCCN)n3cc([C@@H](N)CO)nn3)CC2)nc(N2CCN(C(=O)[C@H](CCCCN)n3cc([C@@H](N)CC(C)C)nn3)CC2)n1	10	-16	28	44	-272	5	·
C#CCOCCOCCOCCNc1nc(N2CCN(C(=O)[C@H](CCCCN)n3cc(CN)nn3)CC2)nc(N2CCN(C(=O)[C@H](CC(N)=O)n3cc(C(N)[C@H](C)CC)nn3)CC2)n1 (some centres not stated)	62	-52	12	64*	-141	-9	i
O=C(CCNc1cccc(F)c1)c1cccc([N+](=O)[O-])c1	·	·	11	-14	0	·	·
CCN(c1ccccc1)S(=O)(=O)c1ccc(Cl)c(NC(=O)CSc2ncn[nH]2)c1	·	·	·	-5	0	·	·
C[C@@H]1CCCCO[C@H](CN(C)C(=O)Nc2cccc3ccccc23)[C@@H](C)CN([C@@H](C)CO)C(=O)c2cc(NC(=O)Nc3ccc(C(F)(F)F)cc3)ccc2O1	-15	3	5	18	-2	1	·
CCOC(=O)C1CCN(Cc2cn[nH]c2-c2ccccc2)CC1	-1	9	·	·	·	-11	·
Cc1ccc2nc(-c3ccc(NC(=S)NC4CC(C)(C)NC(C)(C)C4)cc3)sc2c1	-1	35	-8	95*	30	-2	i
Cc1ccc2nc(-c3ccc(NC(=S)NC(=O)C(C)C)cc3)sc2c1	-12	-7	1	-18	6	3	·
Oc1ccc(C[C@H]2CNCCN2CC2CCCCC2)cc1	-1	-1	5	-1	0	0	·
CC1CCCN(C(=O)CNC(=O)c2cccs2)C1 (configuration not stated)	-7	-6	2	-15	-1	1	·
CN(C)CCc1cc2c(c3c1ccc1ccccc13)OCO2	2	95*	·	100*	-19	5	37µM*
COc1cc2ccc3c(CCN(C)C)cc(OC)c(OC)c3c2cc1OC	-6	35	7	40	-2	16	·
CCC(/C=C1\Sc2ccc(OC)cc2N1CCO)=C\c1sc2ccc(OC)cc2[n+]1CCO	-8	11	2	83*	-7	-1	i
CCOC(=O)c1sc2nc(N3CCCC3)c3c(c2c1N)CC(C)(C)OC3	-4	6	·	·	·	0	·
CC1(C)Cc2c(c(N3CCCC3)nc3sc4c(N5CCN(CCO)CC5)ncnc4c23)CO1	-11	25	27	58*	5	-4	i

From PubChem
